# How the values were obtained:
# Amino acid sequences for entries named in this document (tags omitted). Residues count along the entry.
# UniProt P03951, 388-625 limits assumed: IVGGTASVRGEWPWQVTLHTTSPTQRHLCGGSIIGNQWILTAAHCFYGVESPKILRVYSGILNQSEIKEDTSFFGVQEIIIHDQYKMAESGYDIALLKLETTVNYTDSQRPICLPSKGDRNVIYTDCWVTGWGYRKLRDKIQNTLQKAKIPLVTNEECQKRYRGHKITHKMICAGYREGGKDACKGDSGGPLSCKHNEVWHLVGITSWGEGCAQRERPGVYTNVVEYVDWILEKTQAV
# UniProt P03951, 19-387 partner limits assumed: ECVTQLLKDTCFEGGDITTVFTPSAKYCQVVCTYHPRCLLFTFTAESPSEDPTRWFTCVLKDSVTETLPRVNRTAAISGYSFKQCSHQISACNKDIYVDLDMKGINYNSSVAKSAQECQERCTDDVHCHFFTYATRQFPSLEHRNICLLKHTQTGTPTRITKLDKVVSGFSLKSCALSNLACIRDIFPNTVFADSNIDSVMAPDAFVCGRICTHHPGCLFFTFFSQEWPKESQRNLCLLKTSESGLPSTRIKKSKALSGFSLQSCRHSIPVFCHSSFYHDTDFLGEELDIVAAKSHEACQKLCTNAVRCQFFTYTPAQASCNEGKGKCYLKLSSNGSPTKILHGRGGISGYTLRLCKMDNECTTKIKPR
# human factor XIa = human factor XIa (Homo sapiens, UniProt P03951); experiment: Screening test of enzyme inhibitory activity on hFXIa; settings: read-out: hFXIa IC50; substrate S-2366/S-2306, 37° C. 10 minutes, absorbance 405 nm, pH 7.4
# Description: 1. Screening Test of Enzyme Inhibitory Activity on hFXIa (Human Factor XIa)
# (§1) Purpose of the Experiment:
# Detection of the inhibitory activity of the compounds of the present disclosure on human factor XIa
# 1) Experimental buffer pH 7.4
# 100 mM Tris-HCl (Sigma, catalog number: T2663, batch number: SLBG2775)
# 200 mM NaCl (Sigma, catalog number: 13423, batch number: SZBB2360V)
# 2) Enzymes and Substrates
# Enzyme, Human Factor XIa (Human Factor XIa, Abcam, Cat #ab62411): Total amount: 50 μg. Dissolved with experimental buffer and packed separately.
# Substrate S-2366 (DiaPharma, catalog number: S821090): 25 mg
# 3) Instruments and Consumables
# SpectraMax 340PC Multifunctional Microplate Reader (Molecular Devices)
# 384-well black transparent reaction plate (Corning Cata #3712)
# Echo Liquid Workstation (Labcyte)
# Echo 384-well polypropylene compound plate (Labcyte-P-05525) was used.
# Echo 384 Shallow Pore Polypropylene Compound plate (Labcyte-LP-0200, 2.5-12 μL) was used.
# Multidrop automatic dispenser (Thermo Scientific)
# Multidrop Consumables (Thermo Scientific-24073290) […]
# 7) The reaction plate was placed in SpectraMax 340PC and incubated at 37° C. for 10 minutes, and the absorbance was detected at 405 nm.
# 8) Data were analyzed using GraphPad Prism 5.0
# % Inhibition rate=100%×[1−(sample reading-low signal average value)/(high signal average value-low signal average value)]
# IC50 was analyzed using 4-factor linear regression: […]
# human plasma = experiment: Determination of aPTT (activated partial thromboplastin time) in human plasma in vitro; settings: coagulation time
# From the text: 2. Determination of aPTT (Activated Partial Thromboplastin Time) in Human Plasma In Vitro
# as §1
# Detection of the anticoagulant effect of the compounds of the present disclosure on human plasma in vitro
# 1) Coagulation quality control plasma: produced by TECO, Germany, batch number: 093B-J186A
# 2) aPTT test solution: produced by TECO, Germany, batch number: 20002745; CaCl2): produced by TECO, Germany, batch number: 031N-J073A; DMSO: Sangon Bioengineering (Shanghai) Co., Ltd., batch number: BB02BA0001
# 3) Instrument: Germany Meichuang MC-4000 blood coagulation instrument
# 1) Sample solution preparation: 10 mM compound stock solution was prepared with DMSO, and then serially diluted with DMSO as follows: […], 2500, 625, 156.25, 39.06, 9.76, 2.44 μM; then series of concentrations were diluted with tris(hydroxymethylaminomethane) buffer (containing 5% Tween 80) 10 times for use, and the drug to plasma volume ratio was 1:9 during detection. […]
# 4) Test detection: According to the instructions of the kit, the sample solution to be tested or the reference solution were added into the 37° C. preheated colorimetric cup, preheated at 37° C. for 2 min, aPTT reagent was added, incubated at 37° C. for 3 min, 0.02 M CaCl2 (preheated at 37° C.) was added, and the coagulation time was recorded.
# [1] = In vivo pharmacokinetic evaluation in rats; settings: male SD rats
# Description: 3. In Vivo Pharmacokinetic Evaluation in Rats
# as §1
# Detection of pharmacokinetic parameters of the compounds of the present disclosure in rats.
# 1) Experimental drug: compound 6-1;
# 2) Experimental animals: 4 male SD rats aged 7-9 weeks were randomly divided into 2 groups with 2 rats in each group;
# 3) Drug preparation: an appropriate amount of drug was weighed, and dissolved in a mixed solvent of DMAC:slolutol:water=10:10:80, and two kinds of solution 0.2 mg/mL and 0.5 mg/mL were prepared;
# Animals in group 1 were given the drug at a single dose of 0.5 mg/kg at a concentration of 0.2 mg/mL by tail vein injection, and animals in group 2 were given compound at a dose of 3 mg/kg at a concentration of 0.5 mg/mL by gavage. Plasma samples were collected from animals at 0.0833 (tail vein injection group only), 0.25, 0.5, 1, 2, 4, 6, 8 and 24 hours after administration. The LC-MS/MS method was used to determine the drug concentration in the plasma samples, and the kinetic parameters of the tested drugs were obtained as shown in Table 3: […]
# [2] = In vivo pharmacokinetic evaluation in cynomolgus monkeys; settings: male cynomolgus monkeys, compound 6-1 (hydrochloride)
# Description: 4. In Vivo Pharmacokinetic Evaluation in Cynomolgus Monkeys
# as §1
# Detection of pharmacokinetic parameters of the compounds of the present disclosure in cynomolgus monkeys
# Experimental drug: compound 6-1 (hydrochloride);
# Experimental animals: 4 male cynomolgus monkeys were randomly divided into 2 groups, 2 in each group;
# Drug preparation: an appropriate amount of drug was weighed, and dissolved in a mixed solvent of DMAC:slolutol:water=10:10:80, and two kinds of solution 1 mg/mL and 2 mg/mL were prepared;
# Animals in group 1 were given the drug at a single dose of 1 mg/kg at a concentration of 1 mg/mL by tail vein injection, and animals in group 2 were given compound at a dose of 10 mg/kg at a concentration of 2 mg/mL by gavage. Plasma samples were collected from animals at 0.0833 (tail vein injection group only), 0.25, 0.5, 1, 2, 4, 6, 8 and 24 hours after administration. The drug concentration in the plasma samples was determined by LC-MS/MS method, and the kinetic parameters of the tested drug were obtained as shown in Table 4: […]
SMILES,IC50 (human factor XIa) [nM],aPTT2x (human plasma) [µM],Bioavailability F ([1]; gavage 3 mg/kg) [%],Curve area AUC ([1]; gavage 3 mg/kg) [µM·h],Peak time Tmax ([1]; gavage 3 mg/kg) [min],Clearance rate Cl ([1]; tail vein injection 0.5 mg/kg) [mL/min/kg],Curve area AUC ([1]; tail vein injection 0.5 mg/kg) [µM·h],Distribution volume Vd ([1]; tail vein injection 0.5 mg/kg) [L/kg],Half-life T1/2 ([1]; tail vein injection 0.5 mg/kg) [min],"C0 ([1]; read-out: Initial concentration C0, tail vein injection 0.5 mg/kg) [µM]","Cmax ([1]; read-out: Peak concentration Cmax, gavage 3 mg/kg) [µM]",Curve area AUC ([2]; gavage 10 mg/kg) [µM·h],Peak time Tmax ([2]; gavage 10 mg/kg) [min],Curve area AUC ([2]; tail vein injection 1 mg/kg) [µM·h],Distribution volume Vd ([2]; tail vein injection 1 mg/kg) [L/kg],"C0 ([2]; read-out: Initial concentration C0, tail vein injection 1 mg/kg) [µM]","Cmax ([2]; read-out: Peak concentration Cmax, gavage 10 mg/kg) [µM]"
"CC1CCCC(c2coc(-c3c(-n4cc(Cl)nn4)ccc(Cl)c3F)cc2=O)c2cc(ccn2)-c2c(cnn2C(F)F)NC1=O (single isomer, unassigned) [Compound 5-2]",3.94,,,,,,,,,,,,,,,,
"CC1CCCC(c2coc(-c3c(-n4cc(Cl)nn4)ccc(Cl)c3F)cc2=O)c2cc(ccn2)-c2c(cnn2C(F)F)NC1=O (single isomer, unassigned) [Compound 5-1]",9.56,,,,,,,,,,,,,,,,
[2H]C([2H])([2H])n1ncc2c1-c1ccnc(c1)C(c1coc(-c3cc(Cl)ccc3-n3cc(Cl)nn3)cc1=O)CCC[C@@H](C)C(=O)N2 (stereo partly drawn),,2.69,10.8,5.105,15,1.84,7.929,0.11,58.3,16.1,3.75,11.953,180,3.25,0.619,4.53,2.23

# Reference: US20220281868A1, “MACROCYCLIC DERIVATIVES AS FACTOR XIA INHIBITORS” (MEDSHINE DISCOVERY INC., priority 2019, published 2022)
